This note sets out measurements from patent US9962398B2, “Sulfonamide compounds for inhibition of metastatic tumor growth” (Welichem Biotech Inc., priority 2010, dated 2018).

Protein sequences, listed by entry. Tags and fused reporters are not part of them. Lines headed by an entry give the natural chain unless they say otherwise; changes in a name come on top.
UniProt P00915: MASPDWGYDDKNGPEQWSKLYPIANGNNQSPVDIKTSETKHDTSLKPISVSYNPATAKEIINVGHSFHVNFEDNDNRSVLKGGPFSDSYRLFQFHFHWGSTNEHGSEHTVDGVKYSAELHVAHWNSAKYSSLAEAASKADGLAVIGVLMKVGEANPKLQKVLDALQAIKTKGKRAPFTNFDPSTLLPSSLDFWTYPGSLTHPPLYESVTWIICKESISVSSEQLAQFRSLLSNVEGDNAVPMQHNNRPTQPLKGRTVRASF

One test deals with hCA IX (Homo sapiens (Human), UniProt Q16790). As to conditions: read-out: Ki (nM) hCA IX; Table 3.
Another test addresses hCA I (Homo sapiens (Human), UniProt P00915). As to conditions: read-out: Ki (nM) hCA I; Table 3.

On to `NS(=O)(=O)c1ccc(NC(=O)Nc2ccc(Br)cc2F)cc1` [MST-135, 4-(3-(4′-bromo-2′-fluorophenyl)ureido)benzenesulfonamide], for which the inhibitory constant (Ki) at hCA IX came out at 6.3 nM.
In the case of `NS(=O)(=O)c1ccc(NC(=O)Nc2cccc(Cl)c2)cc1` [MST-143, 4-(3-(3′-chlorophenyl)ureido)benzenesulfonamide], on hCA I, the Ki turned out to be 158 nM.
